# Source: patent publication US9993457B2, “Method of improving visual processing, visual acuity, or both by administering compositions comprising RRR-alpha-tocopherol and carotenoid to infants” (ABBOTT LABORATORIES, priority 2014, dated 2018)
# How the values were obtained:
# [1] = not given; remark: listed apart in the source
substance,measurement,setting,value
2S-alpha-tocopherol,"mean 2S-alpha-tocopherol percentage (of total alpha-tocopherol), high vs low β-carotene group",frontal cortex (FC),not significantly different
same,"mean 2S-alpha-tocopherol percentage (of total alpha-tocopherol), high vs low β-carotene group",hippocampus (HPC),not significantly different
same,"mean 2S-alpha-tocopherol percentage (of total alpha-tocopherol), high vs low β-carotene group","occipital cortex (OC), p<0.05",significantly less
same,"mean 2S-alpha-tocopherol percentage (of total alpha-tocopherol), high vs low zeaxanthin group",[1]; frontal cortex (FC),not significantly different
same,"mean 2S-alpha-tocopherol percentage (of total alpha-tocopherol), high vs low zeaxanthin group",[1]; hippocampus (HPC),not significantly different
same,"mean 2S-alpha-tocopherol percentage (of total alpha-tocopherol), high vs low zeaxanthin group","[1]; occipital cortex (OC), p=0.08",trend of less

# Read-outs that look alike come from different tables or passages of the source.
